# Some salts and complexes are drawn in separate pieces, as the source files them; their charges need not balance.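 Method: 48-hour compound exposure of cells in 96-well plates, five concentrations, linear interpolation of endpoints. GI50 is the concentration that inhibits growth by half. TGI marks complete inhibition of growth.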
# How the values were obtained:
# Assay in all cases: NCI anticancer screen, dose series, 48 h
# M14 melanoma = test system: M14 melanoma
# ACHN renal = test system: ACHN renal
# SF-295 CNS = test system: SF-295 CNS
# NCI-H522 lung = test system: NCI-H522 lung
# SK-MEL-2 melanoma = test system: SK-MEL-2 melanoma
# MALME-3M melanoma = test system: MALME-3M melanoma
# HCC-2998 colon = test system: HCC-2998 colon
# NCI-H460 lung = test system: NCI-H460 lung
# KM20L2 colon = test system: KM20L2 colon
# HT29 colon = test system: HT29 colon
# SNB-78 CNS = test system: SNB-78 CNS
# UACC-257 melanoma = test system: UACC-257 melanoma
# RXF 393 renal = test system: RXF 393 renal
# SF-539 CNS = test system: SF-539 CNS
# NCI-H23 lung = test system: NCI-H23 lung
# HOP-92 NSCLC = test system: HOP-92 NSCLC
# HL-60(TB) leukemia = test system: HL-60(TB) leukemia
# UACC-62 melanoma = test system: UACC-62 melanoma
# LOX IMVI melanoma = test system: LOX IMVI melanoma
# DMS 114 small cell lung = test system: DMS 114 small cell lung
# MOLT-4 leukemia = test system: MOLT-4 leukemia
# SNB-19 CNS = test system: SNB-19 CNS
# KM12 colon = test system: KM12 colon
# 786-0 renal = test system: 786-0 renal
# SR leukemia = test system: SR leukemia
# A549 NSCLC = test system: A549 NSCLC
# K-562 leukemia = test system: K-562 leukemia
# UO-31 renal = test system: UO-31 renal
# CCRF-CEM leukemia = test system: CCRF-CEM leukemia
# OVCAR-3 ovarian = test system: OVCAR-3 ovarian
# SK-MEL-28 melanoma = test system: SK-MEL-28 melanoma
# HCT-116 colon = test system: HCT-116 colon
# SW-620 colon = test system: SW-620 colon
# DMS 273 small cell lung = test system: DMS 273 small cell lung
# OVCAR-4 ovarian = test system: OVCAR-4 ovarian
# NCI-H322M lung = test system: NCI-H322M lung
# A498 renal = test system: A498 renal
structure (smiles),measurement,setting,value
N#[O+].O=C([O-])c1ccccc1.[Re].[c-]1[c-][c-][cH-][c-]1.c1ccc([PH+](c2ccccc2)c2ccccc2)cc1,GI50,M14 melanoma,41.8 µM
same,TGI,M14 melanoma,> 100 µM
same,GI50,ACHN renal,59.7 µM
same,TGI,ACHN renal,> 100 µM
same,GI50,SF-295 CNS,34.6 µM
same,TGI,SF-295 CNS,> 100 µM
same,GI50,NCI-H522 lung,35.3 µM
same,TGI,NCI-H522 lung,> 100 µM
same,GI50,SK-MEL-2 melanoma,29.9 µM
same,TGI,SK-MEL-2 melanoma,> 100 µM
same,GI50,MALME-3M melanoma,22.3 µM
same,TGI,MALME-3M melanoma,94.3 µM
same,GI50,HCC-2998 colon,47.3 µM
same,TGI,HCC-2998 colon,> 100 µM
same,GI50,NCI-H460 lung,14.1 µM
same,TGI,NCI-H460 lung,> 100 µM
same,GI50,KM20L2 colon,70.3 µM
same,TGI,KM20L2 colon,> 100 µM
same,GI50,HT29 colon,73.6 µM
same,TGI,HT29 colon,> 100 µM
same,GI50,SNB-78 CNS,36.3 µM
same,TGI,SNB-78 CNS,> 100 µM
same,GI50,UACC-257 melanoma,38.7 µM
same,TGI,UACC-257 melanoma,> 100 µM
same,GI50,RXF 393 renal,44.1 µM
same,TGI,RXF 393 renal,> 100 µM
same,GI50,SF-539 CNS,53.2 µM
same,TGI,SF-539 CNS,> 100 µM
same,GI50,NCI-H23 lung,27.3 µM
same,TGI,NCI-H23 lung,> 100 µM
same,GI50,HOP-92 NSCLC,37.1 µM
same,TGI,HOP-92 NSCLC,87.9 µM
same,GI50,HL-60(TB) leukemia,24.7 µM
same,TGI,HL-60(TB) leukemia,> 100 µM
same,GI50,UACC-62 melanoma,42.4 µM
same,TGI,UACC-62 melanoma,> 100 µM
same,GI50,LOX IMVI melanoma,22.8 µM
same,TGI,LOX IMVI melanoma,> 100 µM
same,GI50,DMS 114 small cell lung,22.9 µM
same,TGI,DMS 114 small cell lung,> 100 µM
same,GI50,MOLT-4 leukemia,> 100 µM
same,TGI,MOLT-4 leukemia,> 100 µM
same,GI50,SNB-19 CNS,53 µM
same,TGI,SNB-19 CNS,> 100 µM
same,GI50,KM12 colon,96.6 µM
same,TGI,KM12 colon,> 100 µM
same,GI50,786-0 renal,59.2 µM
same,TGI,786-0 renal,> 100 µM
same,GI50,SR leukemia,> 100 µM
same,TGI,SR leukemia,> 100 µM
same,GI50,A549 NSCLC,19 µM
same,TGI,A549 NSCLC,79.3 µM
same,GI50,K-562 leukemia,26.3 µM
same,TGI,K-562 leukemia,> 100 µM
same,GI50,UO-31 renal,> 100 µM
same,TGI,UO-31 renal,> 100 µM
same,GI50,CCRF-CEM leukemia,48.8 µM
same,TGI,CCRF-CEM leukemia,> 100 µM
same,GI50,OVCAR-3 ovarian,21.7 µM
same,TGI,OVCAR-3 ovarian,> 100 µM
same,GI50,SK-MEL-28 melanoma,43.6 µM
same,TGI,SK-MEL-28 melanoma,> 100 µM
same,GI50,HCT-116 colon,23.5 µM
same,TGI,HCT-116 colon,> 100 µM
same,GI50,SW-620 colon,55.7 µM
same,TGI,SW-620 colon,> 100 µM
same,GI50,DMS 273 small cell lung,29.9 µM
same,TGI,DMS 273 small cell lung,> 100 µM
same,GI50,OVCAR-4 ovarian,16.6 µM
same,TGI,OVCAR-4 ovarian,> 100 µM
same,GI50,NCI-H322M lung,> 100 µM
same,TGI,NCI-H322M lung,> 100 µM
same,GI50,A498 renal,55.6 µM
same,TGI,A498 renal,> 100 µM
